The list shows a part of the results, in another mix than the full data. Some salts or complexes appear as unconnected parts, following the source record. The source made the active and inactive calls. The rule behind the calls is not given here.
biological target: Regulator of G-protein signaling 16 (Homo sapiens) + Guanine nucleotide-binding protein G(o) subunit alpha (Homo sapiens) (UniProt O15492+P09471); test: modulators of RGS16 binding to Galphao, primary screen, biochemical, human proteins, multiplexed bead flow cytometry (AID 1441); conditions: bead-based flow cytometry RGS16-Galphao binding, fluorescence; at 10 µM; actives lie on both sides;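 note: Galphao activated by GDP with aluminum fluoride before binding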

Amino acid sequences for entries named in this document (tags omitted).
UniProt O15492, whole entry, looked up: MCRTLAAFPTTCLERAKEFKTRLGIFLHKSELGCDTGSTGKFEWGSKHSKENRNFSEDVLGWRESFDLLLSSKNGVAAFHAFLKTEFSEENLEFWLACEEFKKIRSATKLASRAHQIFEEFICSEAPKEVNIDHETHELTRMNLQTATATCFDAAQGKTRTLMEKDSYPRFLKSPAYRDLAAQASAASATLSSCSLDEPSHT
UniProt P09471, whole entry, looked up: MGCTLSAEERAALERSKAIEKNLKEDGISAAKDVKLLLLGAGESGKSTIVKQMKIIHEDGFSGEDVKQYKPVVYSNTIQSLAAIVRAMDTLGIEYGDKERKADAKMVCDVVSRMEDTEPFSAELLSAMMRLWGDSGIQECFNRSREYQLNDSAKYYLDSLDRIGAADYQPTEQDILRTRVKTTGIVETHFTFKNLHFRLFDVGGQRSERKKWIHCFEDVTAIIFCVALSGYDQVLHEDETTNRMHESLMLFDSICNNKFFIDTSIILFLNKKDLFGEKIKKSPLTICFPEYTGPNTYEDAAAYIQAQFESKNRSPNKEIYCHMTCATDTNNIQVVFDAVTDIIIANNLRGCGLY

Structure (SMILES)	binding response (% of control)
CCc1ccc(OP(C)(=O)O)cc1	inactive: 95.2%
COc1ccccc1OP(C)(=O)Nc1ccc(C)cc1C (configuration not stated)	inactive: 99.6%
CP(=O)(Nc1ccccn1)Oc1ccccc1 (configuration not stated)	inactive: 110%
O=C(NC(Sc1ccncn1)C(Cl)(Cl)Cl)c1ccccc1 (configuration not stated)	inactive: 85.5%
Cc1c2non([O-])c-2c(C)[n+](=O)[n+]1[O-]	inactive: 62.1%
Nc1cc(N)c2nonc2c1[N+](=O)[O-]	inactive: 107%
Cc1c(NP(C)(=O)Oc2ccc(C(C)C)cc2)c(=O)n(-c2ccccc2)n1C (configuration not stated)	inactive: 100%
O=[N+]([O-])c1cc([N+](=O)[O-])c(Nc2ccccn2)c([N+](=O)[O-])c1	inactive: 107%
CC(C)CC(=O)NC(Sc1ccc(Cl)cc1)C(Cl)(Cl)Cl (configuration not stated)	inactive: 98%
CN1CCCC(OC(=O)C(c2ccccc2)c2ccccc2)C1 (configuration not stated)	inactive: 105%
CN(C)CCOC(=O)C(O)(c1ccccc1)C1CCCC1 (configuration not stated)	inactive: 100%
Cc1ccc(OP(=O)(Nc2nccs2)Oc2ccc(C)cc2)cc1	inactive: 108%
COc1ccc(OP(C)(=O)Nc2ccccn2)cc1 (configuration not stated)	inactive: 172%
COc1ccccc1OP(C)(=O)Nc1ccc(Br)cc1 (configuration not stated)	inactive: 91.6%
CP(=O)(Nc1ccc(Cl)cc1Cl)Oc1ccccc1 (configuration not stated)	inactive: 90.5%
CP(=O)(OCCOc1ccccc1)OCCOc1ccccc1	inactive: 104%
Nc1cccc2ccc([As](=O)(O)O)cc12	inactive: 96.3%
CCN(N=Nc1nonc1N)c1nonc1N	inactive: 98.9%
Cc1nc2ccc3ccccc3c2o1.O=[N+]([O-])c1cc([N+](=O)[O-])c(O)c([N+](=O)[O-])c1	inactive: 113%
COc1ccc(OP(C)(=O)Nc2ccccc2Br)cc1 (configuration not stated)	inactive: 97.9%
COc1ccccc1OP(C)(=O)Nc1ccc(C)c(C)c1 (configuration not stated)	inactive: 101%
Cc1ccc(NP(=O)(Oc2ccccc2F)Oc2ccccc2F)nc1	inactive: 115%
Cc1cc(SC(NC(=O)c2ccc(F)cc2)C(Cl)(Cl)Cl)ncn1 (configuration not stated)	inactive: 96.6%
CCOP(=O)(Nc1ccccc1)OCC	inactive: 106%
O=P(Nc1nc2ccc(Cl)cc2s1)(c1ccccc1)c1ccccc1	inactive: 93.6%
Cc1cc(C)cc(OP(C)(=O)Nc2cccc(C(F)(F)F)c2)c1 (configuration not stated)	inactive: 103%

Structure (SMILES)	binding response (% of control)
CC(=O)Nc1ccc([As](=O)(O)O)cc1	inactive: 93.4%
O=C(O)c1ccccc1[As](=O)(O)O	inactive: 97.5%
O=C(O)CNc1ccc([As](=O)(O)O)cc1	inactive: 126%
O=[N+]([O-])c1cccc(NC2=NCC(CBr)S2)c1 (configuration not stated)	inactive: 100%
O=[N+]([O-])c1ncn(CCn2ncnc2[N+](=O)[O-])n1	inactive: 105%
CC(C)(C)C(=O)NC(Sc1ccncn1)C(Cl)(Cl)Cl (configuration not stated)	inactive: 97.2%
CP(=O)(OC12CC3CC(CC(C3)C1)C2)OC12CC3CC(CC(C3)C1)C2	inactive: 102%
CCOC(=O)c1ccc(NP(C)(=O)Oc2ccc(Cl)cc2)cc1 (configuration not stated)	inactive: 79.3%
CC1CCN(C(=O)Oc2c(Cl)cc(Cl)c3cccnc23)CC1	inactive: 90.2%
CN(C)C(=O)OCCc1n(C)cc[n+]1C	inactive: 104%
CC(C)=N/N=C(\N)N[N+](=O)[O-]	inactive: 48.6%
CN(C)C(=O)c1c([N+](=O)[O-])cc([N+](=O)[O-])cc1[N+](=O)[O-]	inactive: 92.2%
CP(=O)(Nc1ccc(Cl)cc1)Oc1ccc(F)cc1 (configuration not stated)	inactive: 103%
CCN(/C(=N/P(=O)(N1CCOCC1)N1CCOCC1)N1CCOCC1)c1ccc(OC)cc1	inactive: 105%
C[N+]1=C2C=CC=CC=C2SC12C([N+](=O)[O-])=CC([N+](=O)[O-])=C[C-]2[N+](=O)[O-] (configuration not stated)	inactive: 74.2%
COc1ccccc1OP(C)(=O)Nc1ccccc1Br (configuration not stated)	inactive: 107%
CC(C)(C)c1ccc(OP(C)(=O)O)cc1	inactive: 100%
CCc1ccc(OP(C)(=O)Nc2cccnc2)cc1 (configuration not stated)	inactive: 99.1%
O=[N+]([O-])c1cc([N+](=O)[O-])c(CCNc2ccccc2)c([N+](=O)[O-])c1	inactive: 105%
CCc1nc2c(n1)c1c(non1O)c1c2no[n+]1[O-]	inactive: 106%
Cc1ccc(NP(=O)(Oc2ccccc2)Oc2ccccc2)nc1	inactive: 102%
CP(=O)(Oc1ccccc1)N1CCOC1=O (configuration not stated)	inactive: 108%
O=C(OCCCN1CCCC1)C(O)(c1ccccc1)C1CCCCC1 (configuration not stated)	inactive: 106%
O=[N+]([O-])c1cccc2n[nH]nc12	inactive: 96.8%
COc1ccc(C2=NCC(CBr)S2)cc1 (configuration not stated)	inactive: 110%
COc1ccc(OP(C)(=O)Nc2ccc(Br)cc2)cc1 (configuration not stated)	inactive: 37.2%

Structure (SMILES)	binding response (% of control)
CCN(CC)CC(O)COC(=O)C(O)(c1ccccc1)C1CCCCC1 (configuration not stated)	inactive: 103%
Cc1ccccc1NP(C)(=O)Nc1ccccc1C	inactive: 106%
CP(=O)(Nc1ccc2c(c1)OCCO2)Oc1ccccc1 (configuration not stated)	inactive: 49.3%
c1nnnn1CCn1cnnn1	inactive: 95.9%
CCOP(C)(=S)SCC(=O)NC(C)(CC)C(=O)O (configuration not stated)	inactive: 105%
O=P(Nc1nccs1)(c1ccccc1)c1ccccc1	inactive: 100%
CC(C)C(=O)NC(Sc1ccccc1)C(Cl)(Cl)Cl (configuration not stated)	inactive: 103%
CP(=O)(Nc1ccc(SC(F)(F)F)cc1)Oc1ccc(F)cc1 (configuration not stated)	inactive: 97.4%
O=C(OC1CN2CCC1CC2)c1cccc(Cl)c1 (configuration not stated)	inactive: 89.6%
C(Cc1nn[nH]n1)Cc1nn[nH]n1	inactive: 104%
Nc1ccc([As](=O)(O)c2ccc([N+](=O)[O-])cc2)cc1	inactive: 90.7%
O=[N+]([O-])c1cc([N+](=O)[O-])c(NCC2CCS(=O)(=O)C2)c([N+](=O)[O-])c1 (configuration not stated)	inactive: 98.5%
Cc1cc(-c2cccc3ccccc23)c(C)cn1.O=[N+]([O-])c1cc([N+](=O)[O-])c(O)c([N+](=O)[O-])c1	inactive: 110%
O=[As](O)(c1ccccc1)c1ccc(O)cc1	inactive: 82%
O=[N+]([O-])c1ncn(CCn2cnc([N+](=O)[O-])n2)n1	inactive: 97.6%
O=[N+]([O-])c1ccc(OP2(=O)COCCO2)cc1 (configuration not stated)	inactive: 95.7%
CC(=O)NC(SC(=S)N(C)C)C(Cl)(Cl)Cl (configuration not stated)	inactive: 107%
COc1ccc(NP(C)(=O)Oc2ccccc2OC)cc1 (configuration not stated)	inactive: 101%
O=P(Nc1nc2ccccc2s1)(c1ccccc1)c1ccccc1	inactive: 99.3%
CN(C)CCOC(=O)C(O)(c1ccccc1)C1CCCCC1 (configuration not stated)	inactive: 105%
O=P(Nc1ccccn1)(c1ccc(Br)cc1)c1ccc(Br)cc1	inactive: 90.4%
COc1ccc(OP(C)(=O)Nc2cccc(Br)c2)cc1 (configuration not stated)	inactive: 98.6%
CCCCCOc1ccc(NP(C)(=O)Oc2ccc(Cl)cc2Cl)cc1 (configuration not stated)	inactive: 97.2%
CN(C)C(=O)Oc1noc2ccccc12	inactive: 95.8%
Cc1ccccc1OP(=O)(Nc1ccccn1)Oc1ccccc1C	inactive: 104%
CP(=O)(Nc1ccccc1)Oc1ccc(F)cc1 (configuration not stated)	inactive: 101%

Structure (SMILES)	binding response (% of control)
CCC(=O)N1C2C3N(C(=O)CC)C1C1N(C(=O)CC)C(C(N1C(=O)CC)N3C(=O)CC)N2C(=O)CC	inactive: 144%
Cc1ccc(OP(=O)(Nc2ccccn2)Oc2ccc(C)cc2)cc1	inactive: 107%
COC(=O)c1cc2c(s1)N=C(c1ccccc1)N(C)P2(=O)N1CCOCC1 (configuration not stated)	inactive: 119%
COc1ccc(OP(C)(=O)Nc2ccc(SC(F)(F)F)cc2)cc1 (configuration not stated)	inactive: 102%
CCOC(=O)c1ccc(NP(C)(=O)Oc2ccc(F)cc2)cc1 (configuration not stated)	inactive: 93.2%
CCOC(=O)NC(Sc1ccccc1)C(Cl)(Cl)Cl (configuration not stated)	inactive: 84.9%
c1ccc(-c2nn[nH]n2)c(-c2nn[nH]n2)c1	inactive: -1.45%
O=C(NC1CCS(=O)(=O)C1)NP(=S)(Oc1ccccc1)Oc1ccccc1 (configuration not stated)	inactive: 105%
CCNC(=S)/N=C(\N)N[N+](=O)[O-]	inactive: 99.9%
CC(=O)Nc1ccc(Oc2c([N+](=O)[O-])cc([N+](=O)[O-])cc2[N+](=O)[O-])cc1	inactive: 103%
CC(=O)Nc1ccc([As](=O)(O)O)c(O)c1	inactive: 103%
COc1ccc2c(c1O)-c1c(O)c(OC)cc3c1[C@H](C2)[N+](C)(C)CC3.O=[N+]([O-])c1cc([N+](=O)[O-])c([O-])c([N+](=O)[O-])c1[O-]	inactive: 92.7%
C[C@H]1OP(=O)(Oc2ccccc2)C[C@@H]2O[C@@H]21 (some centres not stated)	inactive: 99.8%
C[C@@H]1C=CCP(=O)(Oc2ccccc2)O1 (some centres not stated)	inactive: 102%
O=C(OCCN1CCN(CCOCc2ccccc2)CC1)C(O)(c1ccccc1)c1ccccc1	inactive: 96.7%
O=C(OC1CN2CCC1CC2)c1ccc([N+](=O)[O-])cc1 (configuration not stated)	inactive: 102%
CC(C)c1ccc(OP(C)(=O)Nc2ccc(SC(F)(F)F)cc2)cc1 (configuration not stated)	inactive: 101%
CC(C)(C)C(=O)NC(Sc1ccccc1)C(Cl)(Cl)Cl (configuration not stated)	inactive: 99%
CP(=O)(Nc1ccccc1F)Oc1ccccc1 (configuration not stated)	inactive: 92.9%
CCOc1ccc(C2=NCC(CBr)S2)cc1 (configuration not stated)	inactive: 135%
CCOP(=O)(Nc1cccc2ccccc12)OCC	inactive: 100%
Nc1cccc2c([As](=O)(O)O)cccc12	inactive: 27.8%
Cc1ccc(NCCc2c([N+](=O)[O-])cc([N+](=O)[O-])cc2[N+](=O)[O-])cc1	inactive: 87%
Cc1cc(C)cc(OP(C)(=O)Nc2ccccn2)c1 (configuration not stated)	inactive: 103%
